# Tests used:
# HCC827 EPR (Aichi) cells = assay: in vitro cytotoxicity assay, HCC827 EPR (Aichi); format: cell-based
# Description: (§1) The cytotoxic assay was performed as follows.
# (§2) The HCC827 ER cell line contains high MET gene copy number and the HCC827 EPR cell line carries T790M EGFR mutation (Suda K. et al. Clin Cancer Res 16: 5489 (2010)). These cell lines reflect the two major mechanisms of resistance against EGFR tyrosine kinase inhibitors (Sequist L. et al. Sci Transl Med 3: 75ra26 (2011)).
# HCC827 ER (Aichi) cells = assay: in vitro cytotoxicity assay, HCC827 ER (Aichi); format: cell-based
# Description: as §1, §2
# HCC827 cell line = assay: in vitro cytotoxic assay, HCC827 in absence or presence of HGF
# Detroit 562 = assay: in vitro cytotoxicity assay, Detroit 562; format: cell-based; settings: Detroit562
# Description: as §1
# In contrast, cetuximab and the huEGFR-7R antibody had no effect on the tumor cell growth.
# H226 cell line = assay: in vitro cytotoxic assay, H226; format: cell-based
# Description: as §1
# NSCLC cell lines with mesenchymal histology are generally more resistant to gefitinib than those with epithelial histology (Yauch R L. et al. Clin Cancer Res 11: 8686 (2005)). […] H226 cell line is a squamous cell carcinoma with mesenchymal histology. Despite of high EGFR expression, H226 cell line is resistant to gefitinib (Yauch R L. et al. Clin Cancer Res 11: 8686 (2005)). […] The non-binding control conjugate, chKTI-SMCC-DM1 was only cytotoxic at ˜160 fold higher concentration than the huEGFR-7R-SMCC-DM1 conjugate.
substance,measurement,setting,value
cetuximab,sensitivity / resistance,HCC827 EPR (Aichi) cells,highly resistant
same,sensitivity / resistance,HCC827 ER (Aichi) cells,highly resistant
same,cytotoxic effect,HCC827-ER-E4 cell line,little effect
same,cell growth inhibition,HCC827 cell line; HCC827 + 50 ng/mL HGF,further reduced
same,cell growth inhibition,"HCC827 cell line; HCC827, absence of HGF",marginal activities
same,effect on tumor cell growth,Detroit 562,had no effect
same,cytotoxic effect,HCC827-ER cell line,little effect
same,effect on tumor cell growth,H226 cell line,neither the huEGFR-7R antibody nor cetuximab had effect

# From patent US9233171B2, “Method of treatment of tumors that are resistant to EGFR antibody therapies by EGFR antibody cytotoxic agent conjugate” (ImmunoGen, Inc., priority 2011, dated 2016)
